# Yeast mating assay B: variants of the scFv Ab-14

Antigen: PDVDLGDISGINAS, a 14-residue peptide of the SARS-CoV-2 spike HR2 region.

The variants keep the heavy chain, the linker and the frameworks of Ab-14 (scFv order VH, three GGGGS repeats, VL).
VH: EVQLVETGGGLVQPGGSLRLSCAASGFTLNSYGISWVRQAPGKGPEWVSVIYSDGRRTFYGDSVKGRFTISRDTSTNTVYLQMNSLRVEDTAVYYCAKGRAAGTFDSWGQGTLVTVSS
VL: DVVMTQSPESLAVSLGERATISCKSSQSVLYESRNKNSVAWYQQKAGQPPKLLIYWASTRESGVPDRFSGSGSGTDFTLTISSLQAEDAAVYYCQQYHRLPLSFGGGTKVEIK

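The parent was found by panning a naive human phage display library on the peptide. Designed CDR sequences, proposed from the first random library and measured here. Their group label is 14L_GP_HC (GP: Gaussian process model; HC: hill climbing; a sequence that several methods proposed may carry one label only). In AlphaSeq, yeast of one mating type display the scFv and yeast of the other type display the target. After mating in shaken culture at 30 °C for 16 h, diploids were selected and their barcode pairs sequenced. Read counts were normalised to the haploid input and turned into Kd by a linear fit to BCL2-family pairs of known affinity, for each replicate. The assay was run in six technical replicates.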

Each variant is given by its three light chain CDRs, as the data file delimits them; those of the parent are KSSQSVLYESRNKNSVA, WASTRES, QQYHRLPLS. Numbers give log10(Kd / nM), so 0 is 1 nM and 3 is 1 µM. Smaller is tighter. A mean of the replicates is given; it leaves out those without a signal. An entry "n.d." has no value in the source: the pair was not observed among the diploids in that replicate. This suggests poor binding but is not conclusive. Background: pairings of all light chain designs with three empty control strains gave a value in 4% of cases (median 2.64, 5th percentile 1.59). Values in that range, when seen in few replicates, are hard to tell from nonspecific mating. Also given: how often the same scFv was detected with the empty control strains, with their mean in brackets. Values of this round are not directly comparable with the first-round values of the same sequences. The authors averaged sequences with at least three values out of six and counted those with two or fewer as poor binders.

CDR-L1	CDR-L2	CDR-L3	log10 Kd, replicates	mean, log10 nM	control signals
KLRQSTLYESRNPNSVA	WASTRCS	QQYHRLPLS	0.66 0.54 0.21 0.45 0.60 0.88	0.56	4/18 (3.31)
KLLQSVLYESRNKNSVA	HASTRES	QQYHRLPLS	0.07 -0.01 0.00 0.26 -0.03 -0.04	0.04	1/18 (1.83)
KFSQSGLYESRTKNSVA	NASTRES	QWYHRLPLS	n.d. n.d. 3.53 2.51 2.55 2.10	2.67	1/18 (1.68)
KASQEKLYESRNKNSVA	DASTRES	QQYHRLPLS	n.d. 1.81 n.d. 0.70 1.00 1.77	1.32	0/18
KSSISNLGEKRNKNSVA	EASTRES	QQYHRLPLS	0.61 0.48 0.76 0.28 0.68 0.67	0.58	4/18 (3.54)
KSSISYLYESRNENSVA	EASTREQ	QQYHRLPLS	0.65 0.53 0.06 0.08 0.15 0.51	0.33	2/18 (2.84)
KSSKSVLFESRNKNSVA	NASTREQ	QQYHRLPLS	0.70 0.67 0.71 0.67 0.90 0.81	0.74	2/18 (2.87)
KLSQSVNYESRNKNSVA	NASTRES	QQYHRLPLS	0.29 0.18 0.07 0.14 0.26 0.26	0.20	4/18 (3.21)
KVSQSWLYESRNKNSVA	GASWRES	QQYHRLPLS	0.21 0.46 0.25 -0.01 0.24 0.00	0.19	0/18
KVRQSTLYESRNKNSVA	DASTRNS	QQYHRLPLS	0.42 0.27 0.33 0.35 0.34 0.37	0.35	0/18
KVSQSVLYESRMKNSVA	DASTRCS	QQYHRLPLY	0.16 -0.20 -0.11 -0.29 -0.34 -0.33	-0.18	0/18
KSSISYLYSSRMKNSVA	EASTRES	QQYHRLPLS	0.84 1.00 0.14 0.55 1.42 0.91	0.81	0/18
KQSQSDLYESRNKNSVA	MASTRES	QQYHRLPLS	0.88 0.24 0.39 0.37 0.52 0.59	0.50	0/18
KVSQSWLYESRNKNSVA	GASAREV	QQYHRLPLS	-0.26 -0.29 -0.46 -0.59 -0.65 -0.38	-0.44	0/18
KSSQSWLYESRNKNSVA	GASEREV	QQYHRLPLS	-0.64 -0.73 -0.89 -0.95 -0.95 -0.57	-0.79	0/18
KFSWSVLYESRNKNSVA	DASTRES	QQYHRLPLS	-0.07 -0.51 -0.43 0.01 -0.29 -0.29	-0.26	1/18 (2.87)
KFSPSVLYESRVKNSVA	NASTRES	QQYHRLPLS	0.22 0.21 -0.05 0.23 -0.05 0.12	0.11	0/18
KLRQSTKYESRNQNSVA	HASTRES	QQYHRLPLS	0.48 0.16 0.42 0.11 0.33 0.34	0.31	0/18
KLPQGVLYESRNKNSVA	GASCRES	QQYHRLPLS	0.02 -0.25 -0.09 -0.48 -0.28 -0.28	-0.23	1/18 (2.46)
KSSQSVPYESHNKNSVA	NASTRMS	QQYHRLPLS	0.10 0.01 -0.07 0.03 0.16 0.19	0.07	1/18 (2.40)
KLSQSTLYDSQNKNSVA	WASTRES	QQYWRLPLS	0.44 0.23 0.49 0.10 0.41 0.48	0.36	2/18 (2.36)
KSSWSVLNESRNKNSVA	DASTRMS	QQYHRLPLS	0.62 0.56 0.30 0.37 0.39 0.47	0.45	1/18 (3.05)
KVLQSVVYEGRNKNSVA	QASTRED	QQYHRLPLS	0.56 0.28 0.25 0.57 0.43 0.55	0.44	0/18
KQSQSVLYESVNKNSVA	DASTRLS	QQYHRLPLS	0.08 -0.01 -0.03 0.05 -0.14 0.01	-0.01	2/18 (2.73)
KSSQSVLYESQNKNSVA	NASTRMS	QQYHRLPLS	0.32 0.27 0.14 0.01 0.20 0.12	0.18	2/18 (2.63)
KSLQSVLYESGDKNSVA	HASTRED	QQYHRLPLS	0.41 0.22 0.09 0.19 0.19 0.80	0.32	2/18 (3.29)
KVSISYLLESRNKNSVA	EASTRES	QQYHRLPLS	0.11 0.40 0.16 0.34 0.10 0.46	0.26	0/18
KSSQSWSYESRNKNSVA	GASTRES	QQYHRLPLS	0.29 0.60 0.85 0.03 0.38 0.37	0.42	0/18
KLSQSTLYDSQNKNSVA	NASTRES	QQYKRLPLS	-0.27 -0.30 -0.42 -0.35 -0.50 -0.22	-0.34	0/18
KSSISMLYESRNTNSVA	EASTRES	QQYHRLPLS	-0.11 0.14 0.64 -0.20 -0.29 -0.18	0.00	0/18
KLSISDLYESRNKNSVA	EASTREQ	QQYHRLPLS	-0.24 -0.22 -0.20 -0.22 -0.31 0.08	-0.18	0/18

The measurements come from Li et al. 2023 (doi:10.1038/s41467-023-39022-2) through the FLAb antibody collection.